Experimental data reported in PMC2192493 (The Journal of Experimental Medicine, 1996).

Test system: CS-pulsed P815 cells
Assay type: cell-based, mouse
Settings: CS-immunized control mice, E/T ratio 50:1, mean + SEM

DSYIPSAEKI [CS peptide]
cytotoxicity of CS-induced CTL against CS-pulsed P815 cells, control mice: 52.7 + 7.4%
